# Assay results taken from patent US5710150A, “Benzazepine derivative, pharmaceutical composition thereof, and intermediate thereof” (Yamanouchi Pharmaceutical Co., Ltd., priority 1993, dated 1998).
# Tested on: V1
# Assay: V1 antagonism in conscious rats (oral administration), AVP-induced diastolic blood pressure increase
# Format: in vivo, male Wister rats
# Details: 10 mg/kg oral, AVP 30 mU/kg i.v.
structure (smiles),measurement,setting,value
CC(=O)NCCCOc1ccc(C(=O)N2CCC(N3C(=O)CCc4ccccc43)CC2)cc1,Pressure increment by AVP (before compound = 100%),4 hours after administration,100%
same,Pressure increment by AVP (before compound = 100%),only during 30 minutes to 1 hour after administration,≤ 50%
